A short description of the assay: Induction of heme alkylation of Fe(II) heme assessed as adduct A472 absorbance change at completion of reaction at 10 uM in presence of 50% ACN-H2O with excess sodium dithionite under argon at 20 degC by spectrophotometry. The gist of the method: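 Reduced heme made from hemin (10 μM final) in 50% ACN-water (from 0.5 mM stock in 0.1 M NaOH) with excess sodium dithionite, argon-purged sealed cell, stirred at 20°C; peroxide added to 10 μM final. Product formation followed as A472, normalized to initial 418 nm heme absorbance; taken at completion (t = 30 s). n = 3.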

Here are results for one molecule from ChEMBL document CHEMBL1255309, “Relationship between antimalarial activity and heme alkylation for spiro- and dispiro-1,2,4-trioxolane antimalarials” (Antimicrob Agents Chemother, 2008).

Consider `CO[C@H]1O[C@@H]2O[C@@]3(C)CC[C@H]4[C@H](C)CC[C@@H]([C@H]1C)[C@@]24OO3`, for which the deltaA is 0.18.
